Values of other authors as cited in patent publication US20230218571A1 (Thiogenesis Therapeutics, Inc., priority 2020, published 2023).

Details: human, in vivo; cited from earlier work

CC(C)(CO)[C@@H](O)C(=O)NCCC(=O)NCCSSCCNC(=O)CCNC(=O)[C@H](O)C(C)(C)CO [pantethine]
fate of oral dose: much of the pantethine was excreted unchanged in the stool
